Measurements published in patent US9133150B2, “O-nitro compounds and pharmaceutical compositions including same” (dated 2015).

Experiments:
SCC VII tumor cells [1] = assay: Production of nitric oxide in tumor cells by GLYN and radiation (DAF-FM diacetate fluorescence); settings: GLYN 0.1 mM, 1 mM or 10 mM combined with radiation 2 or 10 Gy, versus radiation alone
Method: SCC VII tumor cells were grown in 96-well plates overnight at 37° C. A fluorescent probe DAF-FM diacetate was added at a concentration of 10 μM for 1 hour and then washed out. GLYN was added in the growth media at concentrations of 0.1 mM, 1 mM or 10 mM. Cells were immediately irradiated with radiation doses of 2 or 10 Gy. The green fluorescence was measured at 0 minutes, 10 minutes, 30 minutes, 1 hour, 2 hours, 6 hours and 24 hours after addition of GLYN using a microplate spectrofluorometer with an excitation at 495 nm and an emission at 515 nm. FIGS. 5a-5d show the production of nitric oxide in SCC VII cells at selected times after exposure to GLYN and radiation. Radiation alone produced a low level of NO in SCC VII tumor cells.

SCC VII tumor [2] = assay: Radiosensitization effect of GLYN and SG on SCC VII tumor growth; settings: GLYN 200 mg/kg single dose + 7 Gy radiation; p<0.05 compared with radiation alone
Method: Mice were implanted subcutaneously with SCC VII tumor cells. When tumors reached 100-150 mm^3, mice with tumors were treated with a single dose of GLYN (200 mg/kg), sodium glycididazole (SG, 400 mg/kg), 7 Gy radiation, or in combination. Tumors were measured immediately before treatment and three times a week thereafter.

SCC VII tumor [3] = assay: Chemosensitization effect of GLYN in combination with cis-platin on SCC VII tumor growth
Method: Mice were implanted subcutaneously with a murine squamous cell carcinoma SCC VII tumor cells. When tumors grew to 100-150 mm^3 (12 days after implantation), mice with tumors were treated with a single dose of GLYN (100 mg/kg or 300 mg/kg), cis-platin (CDDP, 2 or 5 mg/kg) or in combination. Tumors were measured immediately before treatment and three times a week thereafter.

SCC VII tumor cells [4] = assay: Production of nitric oxide (NO) in tumor cells by GLYN (DAF-FM diacetate fluorescence); settings: GLYN 0.1 mM, 1 mM or 10 mM, FIG. 4a
Method: SCC VII tumor cells were grown in 96-well plates overnight at 37° C. A fluorescent probe DAF-FM diacetate was added at a concentration of 10 μM for 1 hour and then washed out. GLYN was added in the growth media at concentrations of 0.1 mM, 1 mM or 10 mM. The green fluorescence was measured at 0 minutes, 10 minutes, 30 minutes, 1 hour, 2 hours, 6 hours and 24 hours after addition of GLYN using a microplate spectrofluorometer with an excitation at 495 nm and an emission at 515 nm (see FIGS. 4a and 4b).

[5] = GLYN 300 mg/kg single dose alone, s.c. SCC VII tumors in mice

For `O=[N+]([O-])OCC1CO1` (stereo not drawn), the “intracellular level of NO” value (SCC VII tumor cells [1]) was “slightly increased”, the “4x tumor growth delay time” value (SCC VII tumor [2]) was 4.4 days and the “4x TGT (tumor growth time: tumor volume quadrupling time)” value (SCC VII tumor [3]; [5]) was 3.6 ± 0.5 days. The “TGD (tumor growth delay time: 4x TGT of treated tumors minus mean 4x TGT of control tumors)” value (SCC VII tumor [3]; [5]) was 0.5 ± 0.5 days, the “response of SCC VII tumors to the treatment with cis-platin” value (SCC VII tumor [3]; GLYN at doses of 100 mg/kg or 300 mg/kg) was “significantly enhanced” and the “nitric oxide generated in tumor cells” value (SCC VII tumor cells [4]) was “depended on the dosage of GLYN”.

Some compounds may have been tested in ways that are not shown here.
